Experimental data reported in PubChem BioAssay AID2553 (Johns Hopkins Ion Channel Center, 2010).
The entries are a selection whose mix differs from that of the whole data set. Active and inactive are the calls of the source.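 Rule for the calls: active = B-score under library mean minus 3 SD, initial fluorescence not abnormally high, positive integrated signal ratio; inactive = the rest.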

Sequences of proteins named here, by UniProt entry; tags and fusion partners are left off.
UniProt Q61143, whole entry: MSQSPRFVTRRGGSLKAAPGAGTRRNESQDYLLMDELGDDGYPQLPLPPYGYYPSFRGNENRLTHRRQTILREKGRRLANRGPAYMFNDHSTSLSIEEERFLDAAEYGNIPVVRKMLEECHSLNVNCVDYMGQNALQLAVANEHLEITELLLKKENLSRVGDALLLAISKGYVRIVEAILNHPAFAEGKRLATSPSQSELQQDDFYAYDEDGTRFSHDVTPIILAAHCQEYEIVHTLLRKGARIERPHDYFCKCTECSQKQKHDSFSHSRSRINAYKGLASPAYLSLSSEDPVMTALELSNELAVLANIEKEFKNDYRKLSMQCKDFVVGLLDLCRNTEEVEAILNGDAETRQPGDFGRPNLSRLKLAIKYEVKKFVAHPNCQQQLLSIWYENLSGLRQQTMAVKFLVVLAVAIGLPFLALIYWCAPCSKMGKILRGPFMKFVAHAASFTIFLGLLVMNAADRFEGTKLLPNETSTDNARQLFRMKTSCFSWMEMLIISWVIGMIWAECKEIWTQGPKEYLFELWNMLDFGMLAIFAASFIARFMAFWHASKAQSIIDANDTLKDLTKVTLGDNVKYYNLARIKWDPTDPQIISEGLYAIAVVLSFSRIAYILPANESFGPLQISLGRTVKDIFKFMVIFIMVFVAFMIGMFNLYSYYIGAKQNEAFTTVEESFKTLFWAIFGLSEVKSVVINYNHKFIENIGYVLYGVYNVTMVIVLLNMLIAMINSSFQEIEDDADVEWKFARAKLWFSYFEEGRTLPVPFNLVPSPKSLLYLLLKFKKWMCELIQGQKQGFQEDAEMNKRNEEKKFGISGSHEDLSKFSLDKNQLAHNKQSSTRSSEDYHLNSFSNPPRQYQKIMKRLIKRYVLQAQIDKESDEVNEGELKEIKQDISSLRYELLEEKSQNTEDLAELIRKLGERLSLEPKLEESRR

Molecular target: Short transient receptor potential channel 6 (Mus musculus) (UniProt Q61143)
Assay: mouse TRPC6 channel inhibitors, primary screen, cell-based, HEK293, membrane potential dye (AID 2553);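 for B-score: B-score derived from integrated fluorescence ratio over the kinetic read; more negative B-score means stronger inhibition of depolarization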
Conditions: ACh-evoked depolarization, at 10 µM; hits give low values

SMILES	outcome	B-score
O=C(NCC1(N2CCCCC2)CCCCC1)c1cccc(C(F)(F)F)c1	inactive	
O=C(NCC1(N2CCOCC2)CCCCC1)c1cc(=O)[nH]c2ccccc12	inactive	
COc1cc(C(=O)NCC2(N3CCCCC3)CCCCC2)ccc1OC(F)F	inactive	
COc1ccc(NC2CCN(C(=O)OC(C)(C)C)CC2)cc1	inactive	
CN1CCN(CCOC(=O)C(O)(c2ccccc2)c2ccccc2)CC1		active: -6.29
O=C(NCC1(N2CCCCC2)CCCCC1)c1ccc(OC(F)F)cc1	inactive	
CCN1CCC(Nc2ccc(Cl)cc2)CC1	inactive	
N#CC1(Nc2ccccc2)CCN(CCc2ccccc2)CC1	inactive	
O=C(NCC1(N2CCCCC2)CCCCC1)c1cccc([N+](=O)[O-])c1	inactive	
CN1CCC(Nc2cccc(F)c2)CC1	inactive	
CCCOc1ccc(C(=O)NCC2(N(C)C)CCCCC2)cc1OC	inactive	
CC(C)c1ccc(NC2CCN(C(=O)OC(C)(C)C)CC2)cc1	inactive	
COc1ccc(CN(CCCl)CCCl)cc1Cl	inactive	
CN(C)c1cccc(C(=O)NCC2(N3CCCCC3)CCCCC2)c1	inactive	
COc1cc(OC)c(C(=O)NCC2(N(C)C)CCCCC2)cc1OC	inactive	
O=C(NCC1(N2CCCCC2)CCCCC1)c1ccc(Cl)nc1	inactive	
Cc1cc(C)cc(N(C(=O)c2ccccc2)C2CCN(C(=O)OC(C)(C)C)CC2)c1	inactive	

SMILES	outcome	B-score
O=C(NCC1(N2CCOCC2)CCCCC1)c1cc2ccccc2o1	inactive	
O=C(OC1CN2CCC1CC2)C1c2ccccc2Oc2ccccc21 (stereo not drawn)		active: -12.2
N#CC1(Nc2ccccc2)CCN(Cc2ccccc2)CC1	inactive	
CCOC(=O)N1CCC(Nc2ccc(OC)cc2)CC1	inactive	
COc1ccc(C(=O)NCC2(N3CCCCC3)CCCCC2)cc1	inactive	
CC(C)(C)OC(=O)N1CCC(N(C(=O)c2ccccc2)c2ccc(F)cc2)CC1	inactive	
COc1ccc(C(=O)NCC2(N3CCCCC3)CCCCC2)c(OC)c1OC	inactive	
O=C(NCC1(N2CCCCC2)CCCCC1)c1ccc(=O)[nH]c1	inactive	
O=C(NCC1(N2CCCCC2)CCCCC1)c1cccs1	inactive	
CSc1ccccc1C(=O)NCC1(N2CCCCC2)CCCCC1	inactive	
COc1cc(C(=O)NCC2(N(C)C)CCCCC2)ccc1OC(F)F	inactive	
CCOC(=O)N1CCC(Nc2cccc(C)c2)CC1	inactive	
Cc1ccc(OCC(C)C)c(CN(CCCl)CCCl)c1	inactive	
CCOc1ccc(C)cc1CN(CCCl)CCCl	inactive	
O=C(NCC1(N2CCCCC2)CCCCC1)c1ccc(F)cc1	inactive	
CCOC(=O)N1CCC(Nc2ccc(F)cc2)CC1	inactive	
